Literature values in patent publication US20260137799A1, “ANTI-MUC1* ANTIBODY DRUG COMPLEXES AND USES THEREOF” (Minerva Biotechnologies Corporation, priority 2023, published 2026).

System: HER2+ breast cancers
Conditions: cited from earlier work

Enhertu
patients with treatment induced pneumonitis (human, in vivo): Up to 16%
increase in survival (metastatic breast cancer patients): nearly two years
